Values of other authors in patent US12116388B2, “Amylin receptor agonists” (Novo Nordisk A/S, priority 2022, dated 2024).

Conditions: background statement; cited from earlier work

SMILES: CC[C@H](C)[C@H](NC(=O)[C@@H]1CCCN1C(=O)CNC(=O)[C@H](Cc1ccccc1)NC(=O)[C@H](CC(N)=O)NC(=O)[C@H](CC(N)=O)NC(=O)[C@H](CO)NC(=O)[C@H](CO)NC(=O)[C@H](Cc1c[nH]cn1)NC(=O)[C@@H](NC(=O)[C@H](CC(C)C)NC(=O)[C@H](Cc1ccccc1)NC(=O)[C@H](CC(N)=O)NC(=O)[C@H](C)NC(=O)[C@H](CC(C)C)NC(=O)[C@H](CCCNC(=N)N)NC(=O)[C@H](CCC(N)=O)NC(=O)[C@@H](NC(=O)[C@H](C)NC(=O)[C@@H]1CSSC[C@H](NC(=O)[C@@H](N)CCCCN)C(=O)N[C@@H](CC(N)=O)C(=O)N[C@@H]([C@@H](C)O)C(=O)N[C@@H](C)C(=O)N[C@@H]([C@@H](C)O)C(=O)N1)[C@@H](C)O)C(C)C)C(=O)N[C@@H](CC(C)C)C(=O)N1CCC[C@H]1C(=O)N1CCC[C@H]1C(=O)N[C@H](C(=O)N[C@@H](CC(N)=O)C(=O)N[C@H](C(=O)NCC(=O)N[C@@H](CO)C(=O)N[C@@H](CC(N)=O)C(=O)N[C@H](C(=O)N[C@@H](Cc1ccc(O)cc1)C(N)=O)[C@@H](C)O)C(C)C)[C@@H](C)O [Pramlintide, pramlintide]
- biological half-life: less than 1 hour
